# Results reported in US20240317712A1, “[…] DERIVATIVES AS INHIBITORS OF […]-PEPTIDE CYCLOTRANSFERASE AND […]-PEPTIDE CYCLOTRANSFERASE LIKE PROTEIN” (Boehringer Ingelheim International GmbH, priority 2023, published 2024).
# Tested on: Caco-2 cells
# Experiment: Assay C: Permeability in CACO-2 cells
# Format: in vitro ADME
# Conditions: pH 7.2
Papp A→B,"Permeability A-B (Caco-2, apical to basolateral)",SMILES
3.5 ×10⁻⁶ cm/s,–,Cn1cnnc1C1CCN(S(=O)(=O)c2cccc(Nc3ccc(OCc4ccccc4)nc3)c2)CC1
–,0.7 10^−6 cm/s,Cn1cnnc1C1CCN(S(=O)(=O)c2cccc(Nc3ccc(F)nc3)c2)CC1
